Tests used:
[1] = Intrinsic clearance (Cli), rat liver microsomes; settings: 0.5 µM, scaling factor 46 mg microsomal protein per g liver
Experimental: (§1) Test compound (0.5 µM) was incubated with female CD1 mouse, male rat Han Wistar and pooled human liver microsomes (Xenotech^TM; 0.5 mg/mL 50 mM potassium phosphate buffer, pH7.4) and the reaction started with addition of excess NADPH (8 mg/mL 50 mM potassium phosphate buffer, pH7.4). Immediately, at time zero, then at 3, 6, 9, 15 and 30 min an aliquot (50 µL) of the incubation mixture was removed and mixed with acetonitrile (100 uL) to stop the reaction. An internal standard was added to all samples, the samples centrifuged to sediment precipitated protein and the plates then sealed prior to UPLC-MSMS analysis (Xevo TQ-S Micro, Waters^TM). XLfit (IDBS, UK) was used to calculate the exponential decay and consequently the rate constant (k) from the ratio of peak area of test compound to internal standard at each timepoint. The rate of intrinsic clearance (CLi) of each test compound was then calculated using the following calculation:1 CLi(mL/min/gliver)=kxVxMicrosomalproteinyield Where V (mL/mg protein) is the incubation volume/mg protein added and microsomal protein yield is taken as 48 mg, 46 mg and 40 mg protein/g liver for mouse, rat and human, respectively. Verapamil (0.5 µM) was used as a positive control to confirm acceptable assay performance.

[2] = Intrinsic clearance (Cli), human liver microsomes; settings: 0.5 µM, scaling factor 40 mg microsomal protein per g liver
Experimental: as §1

[3] = Intrinsic clearance (Cli), mouse liver microsomes; settings: 0.5 µM, scaling factor 48 mg microsomal protein per g liver
Experimental: as §1

[4] = Cassette PK study with 22, 25 and 26; settings: i.v. bolus cassette 0.5 mg/kg
Text: Fifteen female mice of the Balb/c strain were obtained from Charles River Laboratories, UK. Animals were maintained under a 12-h light/12-h dark cycle, in Thoren mouse caging containing EC0 aspen bedding (DBM, UK), with 'Sizzlenest' and 'Rodent Rolls' nesting material (DBM). Enrichment materials included aspen chew sticks, cardboard houses, tunnels, swings, and sunflower seeds. All animals had ad libitum access to food (5LF2 Extruded Diet, IPS Ltd, UK) and tap water throughout. Temperature and relative humidity were maintained between 19 °C–24 °C and 45%–65%, respectively. All animals received a minimum of 10 days of acclimatisation prior to the start of the study.
The cassette formulation (22, 25 and 26) was prepared by producing separate stock solutions of each compound dissolved in DMSO (dimethyl sulfoxide) at a concentration of 6 mg/mL. Aliquots of each stock solution were combined in equal parts to produce a stock solution containing 2 mg/mL of each compound. This solution was then diluted with Polyethylene glycol 400 (PEG400), followed by drop-wise addition of sterile water. The final formulation consisted of 5% DMSO, 40% PEG400, and 55% water, and contained 0.1 mg/mL of each compound. For the cassette PK study, three female Balb/c mice were dosed via a bolus intravenous injection at a dose level of 0.5 mg/kg per compound (5 mL/kg). Serial blood samples (10 µL per sample) were collected from the lateral tail vein of each mouse at 5, 15 and 30 min, 1, 2, 4, 6, 8, and 24 h after dose administration. All blood samples were diluted into 90 µL of Milli‑Q ultrapure water and stored at −20 °C prior to bioanalysis. The concentration of 22, 25 and 26 in blood and brain was determined by UPLC-MS/MS. […]
For study samples, a volume (30 µL) was mixed (vortexed) with a volume (90 µL) of acetonitrile to precipitate proteins. […] Supernatant from study samples (80 µL) and calibration samples, QCs, blanks, and double blanks (200 µL) were then transferred to HPLC glass vials containing Milli-Q water (40 µL or 100 µL, respectively), ready for LCMS analysis.

[5] = RealSOL kinetic solubility; settings: PBS pH 7.4, 24 h, 25 °C
Experimental: Solubility was assessed using an 'in-house' developed method known as 'RealSOL'. This solubility method measures the solubility in physiological strength phosphate buffered saline starting from 10 mM DMSO solutions of the test compounds. Although a 'kinetic'^[1] solubility method, the long shaking times appears to give solubility values that reflect more closely those made from solid samples when compared to a previous nephelometric method (unpublished in-house data).
Test compounds were dissolved in DMSO to give 10 mM solutions. Solubility test samples were prepared by adding a volume (5 µL) of the 10 mM solution to a volume (195 µL) of phosphate buffered saline, pH 7.4 (Sigma-Aldrich, Cat no. P4417, made as per manufacturer’s instructions). This solution was then mixed for 24 h (rotary mixing, 900 rpm, 25 °C) excluding light.
After mixing, the solubility test samples were filtered to remove any undissolved material using a proprietary filter (Millipore Multiscreen HTS filter, 96-well format). Samples were drawn through the filter using a vacuum.
The filtrate from the above was analysed for dissolved drug compound using a truncated UHPLC methodology. A Shimadzu Nexera X2 UHPLC system was used, with a reversed-phase column and a simple formic acid gradient elution. The UHPLC parameters are shown in Supporting Information Table 5. […]

[6] = Brain binding, equilibrium dialysis; settings: 10 μg/mL, 5 h dialysis
Experimental: As for plasma protein binding experiments, 96-well equilibrium dialysis apparatus was used to determine the free fraction in brain tissue homogenate for each compound (HT Dialysis LLC, Gales Ferry, CT). Membranes (12–14 kDA cut-off) were conditioned in deionised water for 60 min, followed by conditioning in 80:20 deionised water: ethanol for 20 min, and then rinsed in isotonic buffer before use. Frozen brain tissue was thawed and homogenised in artificial CSF at a ratio of 3:1. Homogenate was then spiked with test compound (final concentration 10 μg/mL), and 150 μL aliquots (n = 6 replicate determinations) loaded into the 96-well equilibrium dialysis plate. Dialysis vs artificial CSF was carried out for 5 h in a temperature-controlled incubator at ca. 37 °C (Barworld Scientific Ltd, UK) using an orbital microplate shaker at 100 revolutions/minute (Barworld Scientific Ltd, UK). […] All samples were analysed by UPLC-MS/MS. The unbound fraction was determined as the ratio of the peak area in buffer to that in homogenate using the following equation:2 Afu=Buffer/Matrix where Afu means apparent fraction unbound […]
The recovery of the dialysed samples was calculated by comparing the sum of the peak areas (buffer and matrix) of any test compound at 37 °C to that of the same compound at 4 °C. […]

With Cn1nc(N2CCC(=O)NC2=O)c2ccc(CN3CCN(CCCCCc4cn(-c5ccc(-c6cn7nccc(C(=O)Nc8cnccc8N8CCOCC8)c7n6)cc5)nn4)CC3)cc21 the “Scaled Microsomal Stability RatClint” value [1] was 2.4 ml/min/g liver, the “Scaled Microsomal Stability HuClint” value [2] was 6.4 ml/min/g liver and the “Scaled Microsomal Stability MuClint” value [3] was 17 ml/min/g liver. For the same compound, the Half_Life [4] was 1.0 h, the Vss_obs [4] was 1.1 L/kg and the AUC0-last ([4]; whole blood) was 18499 ng·min/mL. The RealSol [5] was < 1 µM and the Brain Tissue Binding (Fu) [6] was 0.0076.

Source: paper PMC12501029, “Discovery of a CNS active GSK3 degrader using orthogonally reactive linker screening” (Nature Communications, 2025)
